Test [1] deals with hCXCR2/BMP2Rs-HAR (human). Put plainly: flow cytometry of transfected hMSCs incubated with 20 ng/mL FITC-labeled SDF-1; printed label repeats hCXCR4/BMP2Rs-HAR, taken as a misprint for the hCXCR2/BMP2Rs-HAR control. On the technique in general: In flow cytometry, cells or beads pass a laser one at a time.
For test [2], the target named is hCXCR4/BMP2Rs-HAR (human). Put plainly: cell-based or functional assay.

Chains of the proteins cited; added tags and fusions are not shown. A line that says so, or that is headed by a name, gives the form on record, which may keep a tag or linker. Residues count along the entry.
UniProt P48061, 22-89 limits assumed: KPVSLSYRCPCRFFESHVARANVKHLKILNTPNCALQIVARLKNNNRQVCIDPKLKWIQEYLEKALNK
hCXCR2/BMP2Rs-HAR (human), one chain, as listed by the source limits assumed: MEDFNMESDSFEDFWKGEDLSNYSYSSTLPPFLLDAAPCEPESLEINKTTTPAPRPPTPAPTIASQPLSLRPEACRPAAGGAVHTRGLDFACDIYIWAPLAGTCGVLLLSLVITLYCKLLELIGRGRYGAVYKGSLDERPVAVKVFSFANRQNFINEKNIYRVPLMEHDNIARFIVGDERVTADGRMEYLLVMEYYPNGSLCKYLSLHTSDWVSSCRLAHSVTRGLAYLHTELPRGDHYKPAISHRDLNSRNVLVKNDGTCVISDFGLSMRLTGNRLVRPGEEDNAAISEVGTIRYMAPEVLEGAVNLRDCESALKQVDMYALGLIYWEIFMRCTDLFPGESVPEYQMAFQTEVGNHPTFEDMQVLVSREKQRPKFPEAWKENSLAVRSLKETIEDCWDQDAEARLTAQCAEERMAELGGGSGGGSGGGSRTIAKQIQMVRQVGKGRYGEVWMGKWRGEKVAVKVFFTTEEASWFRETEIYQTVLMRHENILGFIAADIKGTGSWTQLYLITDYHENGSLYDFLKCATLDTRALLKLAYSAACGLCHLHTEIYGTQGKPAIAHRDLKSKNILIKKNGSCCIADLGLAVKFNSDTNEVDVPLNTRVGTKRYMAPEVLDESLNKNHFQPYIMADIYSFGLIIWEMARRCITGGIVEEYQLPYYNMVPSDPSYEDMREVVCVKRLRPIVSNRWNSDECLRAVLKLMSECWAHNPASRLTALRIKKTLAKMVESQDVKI
hCXCR4/BMP2Rs-HAR (human), one chain, as listed by the source limits assumed: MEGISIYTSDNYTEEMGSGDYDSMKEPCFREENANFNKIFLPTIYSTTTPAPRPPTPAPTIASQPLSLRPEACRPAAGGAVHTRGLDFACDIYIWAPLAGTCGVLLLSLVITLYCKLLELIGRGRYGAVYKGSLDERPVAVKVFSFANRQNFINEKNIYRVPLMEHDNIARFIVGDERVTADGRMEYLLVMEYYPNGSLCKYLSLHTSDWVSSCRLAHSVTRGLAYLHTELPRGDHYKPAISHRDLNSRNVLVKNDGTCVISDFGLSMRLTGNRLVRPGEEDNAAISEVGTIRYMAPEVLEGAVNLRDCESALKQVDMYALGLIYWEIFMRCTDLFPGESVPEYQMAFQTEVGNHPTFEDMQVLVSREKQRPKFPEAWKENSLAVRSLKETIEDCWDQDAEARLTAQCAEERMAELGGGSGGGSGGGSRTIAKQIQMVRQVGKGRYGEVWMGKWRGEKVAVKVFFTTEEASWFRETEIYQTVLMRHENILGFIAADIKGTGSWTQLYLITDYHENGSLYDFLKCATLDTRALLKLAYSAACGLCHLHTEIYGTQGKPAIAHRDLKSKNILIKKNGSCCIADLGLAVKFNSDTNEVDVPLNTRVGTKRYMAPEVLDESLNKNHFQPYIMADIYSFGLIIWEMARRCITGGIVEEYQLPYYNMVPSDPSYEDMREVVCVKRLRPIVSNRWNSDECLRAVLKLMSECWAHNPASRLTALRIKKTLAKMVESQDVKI

The values that follow come from patent publication US20230302135A1.

With “FITC-labeled recombinant human SDF-1 (from UniProt P48061 22-89) (ligand)”, the percent of cells with FITC-conjugated SDF-1 detected in test [1] is 15.3%.
For the substance “stromal cell derived factor 1 (SDF-1, Peprotech) (from UniProt P48061 22-89) (ligand)”, in test [2], the GATA4 mRNA (qRT-PCR), fold-change vs. control (none-engineered group) worked out at 3.91 fold-change; the Nkx2.5 mRNA (qRT-PCR), fold-change vs. control (none-engineered group) is 9.07 fold-change; the cTnI mRNA (qRT-PCR), fold-change vs. control (none-engineered group) turned out to be 3.25 fold-change; the cTnT mRNA (qRT-PCR), fold-change vs. control (none-engineered group) stood at 2.53 fold-change. In test [2], this substance gave an expression of ALK3 (flow cytometry) of 88.3%, an expression of cTnI protein (flow cytometry) of 88.7%, an expression of cTnT protein (flow cytometry) of 97.4% and an expression of phospho-Smad1/5 (flow cytometry) of 89.2%.
